# Values quoted from earlier work as cited in patent publication US20220259279A1, “ALGINATE-BASED MICROCAPSULATION FOR THE DELIVERY OF ALPHA-CGRP IN CARDIOVASCULAR DISEASES” (University of South Carolina, priority 2019, published 2022).
# Key:
# [1] = cited from earlier work
# [2] = tested on: normal as well as spontaneously hypertensive rats; conditions: intravenous injection, normal and spontaneously hypertensive rats; cited from earlier work
substance,measurement,setting,value
alpha-calcitonin gene related peptide [α-CGRP],time the native peptide lasts in the body,[1],5 to 7 min
same,time after which MAP returned to normal baseline,[2],20 min
